The numbers were not newly measured in patent US20030139469A1, “Use of inhibitors of soluble epoxide hydrolase to inhibit vascular smooth muscle cell proliferation” (THE REGENTS OF THE UNIVERSITY OF CALIFORNIA, priority 2002, published 2003), which cites them from elsewhere.

By UniProt entry, the sequences of proteins in these tests, tags left out. Where a name states a change or a piece, a line headed by the entry shows the natural chain unless it says otherwise.
UniProt P34914: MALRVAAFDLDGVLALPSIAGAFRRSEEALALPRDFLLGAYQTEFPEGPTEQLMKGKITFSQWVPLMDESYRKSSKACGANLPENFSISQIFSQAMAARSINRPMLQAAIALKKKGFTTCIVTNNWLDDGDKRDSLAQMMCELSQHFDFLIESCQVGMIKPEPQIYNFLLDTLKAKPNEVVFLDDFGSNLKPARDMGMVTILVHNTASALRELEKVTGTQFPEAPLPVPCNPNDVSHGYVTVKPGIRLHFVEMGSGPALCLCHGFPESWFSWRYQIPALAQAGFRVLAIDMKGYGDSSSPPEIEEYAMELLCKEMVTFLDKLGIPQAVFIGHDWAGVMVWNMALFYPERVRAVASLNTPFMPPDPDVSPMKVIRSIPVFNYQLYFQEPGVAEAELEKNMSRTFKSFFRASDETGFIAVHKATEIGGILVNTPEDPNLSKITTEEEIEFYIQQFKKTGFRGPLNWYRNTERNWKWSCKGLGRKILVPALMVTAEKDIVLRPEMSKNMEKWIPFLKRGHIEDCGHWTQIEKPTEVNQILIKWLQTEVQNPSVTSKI
UniProt P80299: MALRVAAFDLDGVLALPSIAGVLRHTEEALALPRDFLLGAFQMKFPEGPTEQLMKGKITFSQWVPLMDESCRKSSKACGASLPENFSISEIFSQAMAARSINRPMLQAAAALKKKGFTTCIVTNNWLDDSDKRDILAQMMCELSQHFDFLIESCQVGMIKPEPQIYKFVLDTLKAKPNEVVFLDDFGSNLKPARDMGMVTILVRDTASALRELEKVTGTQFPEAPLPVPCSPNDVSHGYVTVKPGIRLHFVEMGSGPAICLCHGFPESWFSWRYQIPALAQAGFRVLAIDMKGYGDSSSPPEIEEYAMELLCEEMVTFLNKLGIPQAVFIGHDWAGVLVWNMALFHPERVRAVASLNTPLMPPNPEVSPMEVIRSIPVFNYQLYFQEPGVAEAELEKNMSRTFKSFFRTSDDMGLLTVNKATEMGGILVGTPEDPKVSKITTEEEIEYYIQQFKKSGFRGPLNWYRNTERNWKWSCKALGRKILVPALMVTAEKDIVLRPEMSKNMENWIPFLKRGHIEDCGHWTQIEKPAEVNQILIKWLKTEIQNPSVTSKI

For data set [1], the target named is sEH (Mus musculus, UniProt P34914). To be noted: mice injected with DCU; cited from earlier work.
Data set [2] concerns the target sEH (Rattus norvegicus, UniProt P80299). To be noted: spontaneously hypertensive rats; cited from earlier work.

As for `O=C(NC1CCCCC1)NC1CCCCC1` [DCU, N,N′-dicyclohexylurea], the EET levels entry in data set [1] is “accumulation of EETs”. Moreover, in data set [2], the “urinary 14,15-EET” value was “increase” and the “urinary DHET” value is recorded as “decrease”.
